# Data published in patent US20190302117.
# B1: His6-EGFR 672-998 (protein)
# chain: HHHHHHGEAPNQALLRILKETEFKKIKVLGSGAFGTVYKGLWIPEGEKVKIPVAIKELREATSPKANKEILDEAYVMASVDNPHVCRLLGICLTSTVQLITQLMPFGCLLDYVREHKDNIGSQYLLNWCVQIAKGMNYLEDRRLVHRDLAARNVLVKTPQHVKITDFGLAKLLGAEEKEYHAEGGKVPIKWMALESILHRIYTHQSDVWSYGVTVWELMTFGSKPYDGIPASEISSILEKGERLPQPPICTIDVYMIMVKCWMIDADSRPKFRELIIEFSKMARDPQRYLVIQGDERMHLPSPTDSNFYRALMDEEDMDDVVDADEYLIPQQG
# Legend:
# [1] = target: T1, Peptide 10: EDPIYVTLEGGKKK (version of peptide 2 used for the kinetic experiments)
# T1 chain: EDPIYVTLEGGKKK
# [2] = target: T2, Peptide 11: DEAIYATVAGGKKK (version of peptide 5 used for the kinetic experiments)
# T2 chain: DEAIYATVAGGKKK
protein,measurement,setting,value
B1,2/5 kcat/Km ratio (peptide 2 against peptide 5),[1],5.8
same,Km,[1],> 200 µM
same,kcat,[1],> 0.005 s⁻¹
same,kcat/Km,[1],26 M⁻¹ s⁻¹
same,Km,[2],> 200 µM
same,kcat,[2],> 0.001 s⁻¹
same,kcat/Km,[2],5 M⁻¹ s⁻¹
